From ChEMBL document CHEMBL1122516, “Structure-activity relationships for reactivators of organophosphorus-inhibited acetylcholinesterase: quaternary salts of 2-[(hydroxyimino)methyl]imidazole” (1984)

Amino acid sequences for entries named in this document (tags omitted). A change or cut given only in a name is not applied to a line headed by its entry.
UniProt O42275: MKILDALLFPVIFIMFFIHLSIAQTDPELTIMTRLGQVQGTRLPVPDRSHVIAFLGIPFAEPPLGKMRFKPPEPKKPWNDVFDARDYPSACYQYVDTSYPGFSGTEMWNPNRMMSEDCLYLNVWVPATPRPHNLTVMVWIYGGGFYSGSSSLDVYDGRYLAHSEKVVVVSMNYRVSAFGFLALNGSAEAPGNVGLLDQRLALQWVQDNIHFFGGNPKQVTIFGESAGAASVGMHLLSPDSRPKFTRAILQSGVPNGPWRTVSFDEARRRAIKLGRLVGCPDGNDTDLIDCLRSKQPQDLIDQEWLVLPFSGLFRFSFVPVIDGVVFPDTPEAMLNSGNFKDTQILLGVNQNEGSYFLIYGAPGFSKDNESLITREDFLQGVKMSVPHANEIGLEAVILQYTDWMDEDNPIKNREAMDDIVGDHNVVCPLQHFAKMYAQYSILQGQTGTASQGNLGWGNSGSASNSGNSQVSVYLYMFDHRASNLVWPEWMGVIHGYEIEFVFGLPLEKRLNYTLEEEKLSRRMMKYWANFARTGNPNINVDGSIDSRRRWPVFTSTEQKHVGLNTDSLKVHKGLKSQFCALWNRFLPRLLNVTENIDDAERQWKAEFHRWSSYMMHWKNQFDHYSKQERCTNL

Target: Acetylcholinesterase (Electrophorus electricus) (UniProt O42275)
Assay: The compound was tested for % of maximum reactivation for GD-inhibited Eel AChE (Acetylcholinesterase) by oximes

COC[n+]1ccn(C)c1/C=N/O gave an Rmax of 15%.
